Reference: patent US20220387407A1 (priority 2021, published 2022)
Marks after values point to notes of the source that are not given here.

Legend:
freely-moving rats [1] = assay: Tissue O2 saturation (SpO2) analysis after morphine in freely-moving rats; conditions: for Cumulative change in sPO2: Post-drug, % change from Pre: 0-15 min post-drug
freely-moving rats [2] = assay: Blood pressure and heart rate measurement after morphine in freely-moving rats; conditions: morphine 10 mg/kg IV, 0-15 min post-injection; Vehicle group (before vehicle)

Row | Compound | Cumulative change in sPO2: Post-drug, % change from Pre (freely-moving rats [1]; Tempol 60 mg/kg IV 15 min after morphine 10 mg/kg IV) [%] | Cumulative change in sPO2: Post-drug, % change from Pre (freely-moving rats [1]; Tempol 100 mg/kg IV 15 min after morphine 10 mg/kg IV) | Cumulative change in sPO2: Morphine, % change from Pre (freely-moving rats [1]; morphine 10 mg/kg IV, 0-15 min after injection, Vehicle group (before vehicle)) [%] | DBP, mmHg: Morphine, % change from Pre (cumulative) (freely-moving rats [2]) [%] | HR/MAP, mmHg/beats/min: Morphine, % change from Pre (cumulative) (freely-moving rats [2]) [%] | Heart rate (HR), beats/min: Morphine, % change from Pre (cumulative) (freely-moving rats [2]) [%] | MAP, mmHg: Morphine, % change from Pre (cumulative) (freely-moving rats [2]) [%] | SBP, MmHg: Morphine, % change from Pre (cumulative) (freely-moving rats [2]) [%]
1 | CC1(C)CC(O)CC(C)(C)N1[O] [Tempol, 4-hydroxy-2,2,6,6-tetramethylpiperidine-N-oxyl] | −9.6 ± 4.0 | −4.5 ± 0.6*^,† % | – | – | – | – | – | –
2 | CN1CC[C@]23c4c5ccc(O)c4O[C@H]2[C@@H](O)C=C[C@H]3[C@H]1C5 [Morphine, morphine] | – | – | −14.5 ± 3.4 | −10.5 ± 4.3 | −14.2 ± 6.1 | −23.9 ± 5.9 | −7.5 ± 3.1 | −3.6 ± 2.8
